# Results: US12473304B2, “Heterocyclic PAD4 inhibitors” (BRISTOL-MYERS SQUIBB COMPANY, priority 2020, dated 2025)
# Sequences of proteins named here, by UniProt entry; tags and fusion partners are left off.
# UniProt Q9UM07, whole entry: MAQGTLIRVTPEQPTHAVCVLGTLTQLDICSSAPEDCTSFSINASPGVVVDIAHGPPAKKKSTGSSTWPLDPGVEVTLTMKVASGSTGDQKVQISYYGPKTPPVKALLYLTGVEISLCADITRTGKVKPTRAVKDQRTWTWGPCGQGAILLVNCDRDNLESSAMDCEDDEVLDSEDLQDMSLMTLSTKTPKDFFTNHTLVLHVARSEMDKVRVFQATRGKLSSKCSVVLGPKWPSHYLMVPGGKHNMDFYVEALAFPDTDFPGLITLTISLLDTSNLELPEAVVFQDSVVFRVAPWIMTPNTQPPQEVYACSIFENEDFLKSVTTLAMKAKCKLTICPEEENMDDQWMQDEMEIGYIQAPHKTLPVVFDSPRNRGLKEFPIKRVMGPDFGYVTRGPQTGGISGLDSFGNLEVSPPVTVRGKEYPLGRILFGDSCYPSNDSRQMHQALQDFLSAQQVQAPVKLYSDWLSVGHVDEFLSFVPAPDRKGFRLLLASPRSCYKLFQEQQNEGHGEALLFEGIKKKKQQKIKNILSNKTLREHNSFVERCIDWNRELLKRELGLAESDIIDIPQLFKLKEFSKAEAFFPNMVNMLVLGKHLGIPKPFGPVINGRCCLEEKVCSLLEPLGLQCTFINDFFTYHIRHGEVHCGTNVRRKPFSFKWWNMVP
# Target: human PAD4 (hPAD4) (Homo sapiens (Human), UniProt Q9UM07)
# Test: RFMS Human PAD4 Functional Assay 1
# Details: read-out: hPAD4 RFMS IC50; RFMS assay 1; 5 nM hPAD4, 250 μM BAEE substrate, 50 μM calcium, 37° C.
# Method: RFMS Human PAD4 Functional Assay 1:
# Compounds were solubilized in 100% DMSO to achieve all) mM compound concentration. Compound stock solutions were stored at RT. A series of dilutions were prepared in DMSO and mixed 8 times with 20 μL mixing volume. Final top concentration of compound in the assay is 50 μM. Final assay conditions were as follows: • Reaction volume: 26 μl • Assay buffer: 25 mM hepes, pH 7.5, 5 mM NaCl, 1 mM DTT, 0.2 mg/ml BSA, 0.01% CHAPS, 50 μM Calcium, and 5 μM TPEN • Final concentrations: 5 nM hPAD4 enzyme, 250 μM BASE, and 0.5% DMSO • Total incubation time: 30 mins compound and enzyme preincubation at 37° C., 90 min enzyme/substrate reaction, 30 min reaction with phenyl glyoxal at 37° C. • Stop solution: 40 μl 5% TCA in ACN
# 0.13 μL of compound solution was added to 13 μL of 10 nM PAD4 in assay buffer. After 30 min 13 μl of 500 μM of BAEE was added in 25 mM hepes, pH 7.5, 5 mM NaCl, 1 mM DTT, 0.2 mg/ml BSA, 0.01% CHAPS, 50 μM Calcium, 5 μM TPEN was added and the reaction incubated for 90 min at 37° C. The enzymatic reaction was quenched by addition of 15 μl of 6.1N TCA, 100% Final Concentration is 20%, 35 μl of 8.5 mM phenyl glyoxal (final concentration 4 mM) is then added and the reaction is incubated for 30 min at 37° C.
# After 30 minutes the plates are spun down to remove all precipitate. The enzyme reaction was quenched with an equal volume of methanol containing internal standard (modified citrulline). Samples were loaded onto the Rapid Fire RF300 system (Agilent) wherein they were first sipped for 1000 ms and then directly loaded to a C18 separations cartridge using a mixture of acetonitrile containing 0.01% formic acid for 3000 ms desalting. The flow rate of the mobile phase was 1.5 ml/min. Once the samples were eluted from the cartridge, a mobile phase of acetonitrile containing 0.01% formic acid was used to move the samples into the mass spectrometer for 4000 ms at a flow rate of 1.25 ml/min/Sciex API5500 triple quadrupole mass spectrometer (Applied Biosystems) equipped with ESI was used to analyze the peptidyl citrulline and internal standard ions.
# MRM transition of product and internal standard were monitored at m/z 424.5 to 350.4 and m/z 293 to 247 respectively. The dwell time for each transition was set at 200 ms, and the ESI voltage was used at 5500 with a source temperature of 400° C. Extracted ion peaks for each transition were integrated using the Rapid Fire Integrator software. Peak area of analyte was normalized with internal standard.).
row,Structure (SMILES),IC50
1,Cc1c(-c2cc3ccc(-c4ccc5c(c4)CNC5=O)cc3n2CC2CC2)nn2cc(C(=O)N3CC4CCC3[C@@H]4N)cc(F)c12 (some centres unmarked),80 nM
2,COc1cc(C(=O)N2CCC[C@@H](N)C2)cn2nc(-c3cc4cccc(C5CN(C(C)=O)C5)c4n3CC3CC3)c(C)c12,6050 nM
3,COc1cc(C(=O)N2C[C@H](N)C[C@@H](F)C2)cn2nc(-c3cc4cccc(C5CN(C(C)=O)C5)c4n3CC3CC3)c(C)c12,15000 nM
4,COc1cc(C(=O)N2C[C@H](N)C[C@@H](F)C2)cn2nc(-c3cc4ccc(N5CCC(S(C)(=O)=O)CC5)cc4n3CC3CC3)c(C)c12,20 nM
5,CNC(=O)c1ccc(-c2ccc3cc(-c4nn5cc(C(=O)N6CC7CCC6[C@@H]7N)ccc5c4C)n(CC4CC4)c3c2)cn1 (some centres unmarked),80 nM
6,Cc1c(-c2cc3ccc(-c4cn[nH]c4)cc3n2CC2CC2)nn2cc(C(=O)N3CC4CCC3[C@@H]4N)ccc12 (some centres unmarked),40 nM
7,Cc1c(-c2cc3ccc(-c4ccc5[nH]ccc5c4)cc3n2CC2CC2)nn2cc(C(=O)N3C[C@H](N)C[C@@H](F)C3)ccc12,2840 nM
8,Cc1c(-c2cc3ccc(-c4ccc(C(N)=O)c(Cl)c4)cc3n2CC2CC2)nn2cc(C(=O)N3CC4CCC3[C@@H]4N)ccc12 (some centres unmarked),30 nM
